Patent EP2351737A1, “3-Amino-1-arylpropyl indoles and aza-substituted indoles” (F. Hoffmann-La Roche AG, priority 2005, dated 2007)

Protein sequences, listed by entry. Tags and fused reporters are not part of them.
UniProt P31645, whole entry: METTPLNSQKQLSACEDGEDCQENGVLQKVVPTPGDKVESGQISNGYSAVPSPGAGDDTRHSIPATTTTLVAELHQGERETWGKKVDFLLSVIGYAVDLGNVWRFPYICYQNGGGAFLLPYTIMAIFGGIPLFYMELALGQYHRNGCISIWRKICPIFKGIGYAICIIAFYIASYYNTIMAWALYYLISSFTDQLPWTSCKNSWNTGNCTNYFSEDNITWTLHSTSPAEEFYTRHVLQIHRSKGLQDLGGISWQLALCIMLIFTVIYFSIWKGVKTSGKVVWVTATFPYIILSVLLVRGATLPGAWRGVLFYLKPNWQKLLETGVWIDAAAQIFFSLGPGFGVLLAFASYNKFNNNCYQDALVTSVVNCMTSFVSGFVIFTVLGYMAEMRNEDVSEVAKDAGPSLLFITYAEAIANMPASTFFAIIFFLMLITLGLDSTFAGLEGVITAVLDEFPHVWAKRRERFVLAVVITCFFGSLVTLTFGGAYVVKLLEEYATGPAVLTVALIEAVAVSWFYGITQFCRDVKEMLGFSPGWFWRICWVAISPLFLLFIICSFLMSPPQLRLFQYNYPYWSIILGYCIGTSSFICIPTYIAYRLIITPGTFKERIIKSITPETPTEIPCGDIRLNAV
UniProt P23975, whole entry: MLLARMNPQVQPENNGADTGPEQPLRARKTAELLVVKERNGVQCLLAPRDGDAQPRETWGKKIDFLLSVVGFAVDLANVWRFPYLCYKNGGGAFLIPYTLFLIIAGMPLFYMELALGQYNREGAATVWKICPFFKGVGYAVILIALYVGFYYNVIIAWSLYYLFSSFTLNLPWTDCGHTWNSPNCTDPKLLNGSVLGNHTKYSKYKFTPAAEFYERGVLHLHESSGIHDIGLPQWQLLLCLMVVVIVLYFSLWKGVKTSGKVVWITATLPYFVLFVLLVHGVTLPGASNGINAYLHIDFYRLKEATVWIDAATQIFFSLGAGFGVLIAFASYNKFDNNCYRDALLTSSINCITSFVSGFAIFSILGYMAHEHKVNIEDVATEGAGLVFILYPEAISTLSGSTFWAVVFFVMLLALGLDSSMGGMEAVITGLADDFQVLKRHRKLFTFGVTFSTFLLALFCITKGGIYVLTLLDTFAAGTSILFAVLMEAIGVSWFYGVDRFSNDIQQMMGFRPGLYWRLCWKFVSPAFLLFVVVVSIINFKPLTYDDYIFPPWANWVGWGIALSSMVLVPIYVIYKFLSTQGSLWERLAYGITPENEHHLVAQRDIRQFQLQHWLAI

Experiments:
[1] = molecular target: T1, Human Serotonin Transporter (hSERT) (Homo sapiens, UniProt P31645); assay: Human Serotonin Transporter (hSERT) Scintillation Proximity Assay (SPA), competition with [3H]-Citalopram; assay type: binding; details: membranes of HEK-293 cells expressing recombinant hSERT, Ki by Cheng-Prusoff
T1 construct: expressed in transfected cells; membranes prepared from them

[2] = molecular target: Human Norepinephrine Transporter (hNET) (Homo sapiens, UniProt P23975); assay: Human Norepinephrine Transporter (hNET) Scintillation Proximity Assay (SPA), competition with [3H]-Nisoxetine; details: membranes of HEK-293 cells expressing recombinant hNET, Ki by Cheng-Prusoff

Row | Substance | pKi SERT [1] | pKi NET [2]
1 | 7-Chloro-5-(3-methylamino-1-phenyl-propyl)-1H-indole-3-carbonitrile [Compound 124] | 7.26 | 6.57
2 | 7-Fluoro-5-(3-methylamino-1-phenyl-propyl)-1H-indole-3-carbonitrile [Compound 125] | 7.85 | 6.49
